Drawing on ChEMBL document CHEMBL5233201, “Progress in mechanistically novel treatments for schizophrenia” (RSC Med Chem, 2021), this text covers Emax for one compound.

By UniProt entry, the sequences of proteins in these tests, tags left out.
UniProt P08908, whole entry: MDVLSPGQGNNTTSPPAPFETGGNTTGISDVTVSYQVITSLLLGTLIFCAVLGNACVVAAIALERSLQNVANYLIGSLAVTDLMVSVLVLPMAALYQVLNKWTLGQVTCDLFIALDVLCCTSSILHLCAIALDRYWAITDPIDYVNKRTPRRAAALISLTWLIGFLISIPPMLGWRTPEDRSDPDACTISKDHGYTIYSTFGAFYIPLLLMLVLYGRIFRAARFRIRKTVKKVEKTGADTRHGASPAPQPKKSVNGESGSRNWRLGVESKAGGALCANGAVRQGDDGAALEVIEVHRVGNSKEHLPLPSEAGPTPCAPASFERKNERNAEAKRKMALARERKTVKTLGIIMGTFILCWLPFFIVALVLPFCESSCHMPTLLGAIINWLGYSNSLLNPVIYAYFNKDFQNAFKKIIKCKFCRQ

Assay [1] addresses T1, Trace amine-associated receptor 1 (Homo sapiens) (UniProt Q96RJ0).
T1 sequence (whole entry): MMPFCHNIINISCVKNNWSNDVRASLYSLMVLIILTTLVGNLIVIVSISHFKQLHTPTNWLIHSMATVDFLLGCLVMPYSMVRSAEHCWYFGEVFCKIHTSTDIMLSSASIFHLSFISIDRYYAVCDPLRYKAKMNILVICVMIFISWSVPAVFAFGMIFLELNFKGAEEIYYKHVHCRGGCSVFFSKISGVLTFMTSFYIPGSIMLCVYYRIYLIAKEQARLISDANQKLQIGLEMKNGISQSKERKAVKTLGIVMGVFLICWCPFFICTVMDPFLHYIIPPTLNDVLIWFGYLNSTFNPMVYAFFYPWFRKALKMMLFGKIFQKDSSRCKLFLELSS
Nature of the assay: Agonist activity at human TAAR1 relative to control. The note with it: filed as agonist.

The target in assay [2] is 5-hydroxytryptamine receptor 1A (Homo sapiens) (UniProt P08908). Kind of assay: Agonist activity at 5HT1A (unknown origin) relative to control. The note with it: filed as agonist.

The structures appear in SMILES notation.

As a reminder, the Emax is the size of the effect at its maximum, as opposed to the concentration needed. On to `CNC[C@@H]1OCCc2ccsc21`, for which the figures for the Emax in assay [1] and in assay [2] were 101% and 75%, respectively.
